System: human erythrocytes
Experiment: Hemolysis assay
Assay type: cell-based
Protocol: To evaluate possible side effects of the NCR247-based peptides, hemolysis and cytotoxicity assays were performed. Human blood was purchased from the Regional Blood Centre in Szeged. The use of human blood for the hemolysis assay has been authorized by the Regional Hungarian Ethics Committee and approved by the Ethics Review Sector of DG RTD (European Commission) in connection with EK’s ERC AdG SymBiotics. The cells from 1.2 mL of EDTA-blood were centrifuged at 1500 × g for 1 min and washed several times in TBS buffer (10 mM Tris, pH = 7.2, 150 mM NaCl) until the supernatant became colorless. The cells were then resuspended in 12 mL TBS buffer. 100 μL of this cell suspension was incubated with 100 μL of the peptides at 100 and 25 μM. Samples were incubated for 1 h at 37°C, and after centrifugation of the cells at 1500 g for 1 min, the supernatants were transferred into sterile 96-well plates and the hemoglobin release was measured at OD560 (Multiskan FC microplate reader, Thermo Fisher Scientific). Melittin (Bachem) at 50 μg/mL and TBS without peptides were used as positive and negative controls, respectively. Relative hemolytic activity (RHA) of each peptide was calculated as follows: (Compound OD560 −TBS OD560) × 100/(Melittin OD560 −TBS OD560).

**Q.** For `CC[C@H](C)[C@H](NC(=O)CN)C(=O)NCC(=O)N[C@@H](C)C(=O)N[C@H](C(=O)N[C@@H](CC(C)C)C(=O)N[C@@H](CCCCN)C(=O)N[C@H](C(=O)N[C@@H](CC(C)C)C(=O)N[C@H](C(=O)N[C@H](C(=O)NCC(=O)N[C@@H](CC(C)C)C(=O)N1CCC[C@H]1C(=O)N[C@@H](C)C(=O)N[C@@H](CC(C)C)C(=O)N[C@H](C(=O)N[C@@H](CO)C(=O)N[C@@H](Cc1c[nH]c2ccccc12)C(=O)N[C@H](C(=O)N[C@@H](CCCCN)C(=O)N[C@@H](CCCNC(=N)N)C(=O)N[C@@H](CCCCN)C(=O)N[C@@H](CCCNC(=N)N)C(=O)N[C@@H](CCC(N)=O)C(=O)N[C@@H](CCC(N)=O)C(N)=O)[C@@H](C)CC)[C@@H](C)CC)[C@@H](C)O)[C@@H](C)O)C(C)C)C(C)C` [Melittin], which “RHA% (relative hemolytic activity), positive control” value (melittin at 50 μg/mL (reference = 100)) is on record?
**A.** 100%

**Q.** And the “OD560 AVE ± SD (hemoglobin release), positive control” value (melittin at 50 μg/mL, human erythrocytes in TBS pH 7.2, 1 h, 37°C)?
**A.** 1.14 ± 0.364

— publication PMC7047876, “Potent Chimeric Antimicrobial Derivatives of the Medicago truncatula NCR247 Symbiotic Peptide” (Frontiers in Microbiology, 2020)
